Chains of the proteins cited; added tags and fusions are not shown.
UniProt P21554, whole entry: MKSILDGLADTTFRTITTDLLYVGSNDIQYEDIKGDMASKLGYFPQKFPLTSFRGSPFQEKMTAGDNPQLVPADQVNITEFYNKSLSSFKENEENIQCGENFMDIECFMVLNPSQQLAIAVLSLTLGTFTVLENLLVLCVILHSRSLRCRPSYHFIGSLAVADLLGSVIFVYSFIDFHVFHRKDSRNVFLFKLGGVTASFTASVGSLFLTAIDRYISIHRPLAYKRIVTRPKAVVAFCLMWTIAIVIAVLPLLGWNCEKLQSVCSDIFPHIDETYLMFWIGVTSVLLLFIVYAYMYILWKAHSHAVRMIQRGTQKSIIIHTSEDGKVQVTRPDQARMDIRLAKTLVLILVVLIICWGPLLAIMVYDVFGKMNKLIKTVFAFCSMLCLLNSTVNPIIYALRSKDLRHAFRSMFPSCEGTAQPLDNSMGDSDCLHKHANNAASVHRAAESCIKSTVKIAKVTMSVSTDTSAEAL

According to patent US11084781B2, “Diarylureas as CB1 allosteric modulators” (Research Triangle Institute, priority 2017, dated 2021):

Biological target: T1, human CB1 receptor (Homo sapiens, UniProt P21554)
T1 construct: host or cells: CHO-RD-HGA16 cells (CHO cells overexpressing promiscuous Galpha16)
Assay: CB1 calcium mobilization assay (antagonist mode, against EC80 of CP55,940)
Type: cell-based
Conditions: Table 1; against EC80 (100 nM) of CP55,940; mean ± S.E.M.

`O=C(Nc1ccc(Cl)cc1)Nc1cccc(-c2cccc(N3CCCC3)n2)c1` [Compound B, 1-(4-Chlorophenyl)-3-{3-[6-(pyrrolidin-1-yl)pyridin-2-yl]phenyl}urea, reference compound] was tested, and the IC50 was 33 ± 8 nM.
